This is an account of results in patent US20040259833A1 (priority 1999, published 2004).

Sequences of proteins named here, by UniProt entry; tags and fusion partners are left off. A change or cut given only in a name is not applied to a line headed by its entry.
UniProt P0CAW2: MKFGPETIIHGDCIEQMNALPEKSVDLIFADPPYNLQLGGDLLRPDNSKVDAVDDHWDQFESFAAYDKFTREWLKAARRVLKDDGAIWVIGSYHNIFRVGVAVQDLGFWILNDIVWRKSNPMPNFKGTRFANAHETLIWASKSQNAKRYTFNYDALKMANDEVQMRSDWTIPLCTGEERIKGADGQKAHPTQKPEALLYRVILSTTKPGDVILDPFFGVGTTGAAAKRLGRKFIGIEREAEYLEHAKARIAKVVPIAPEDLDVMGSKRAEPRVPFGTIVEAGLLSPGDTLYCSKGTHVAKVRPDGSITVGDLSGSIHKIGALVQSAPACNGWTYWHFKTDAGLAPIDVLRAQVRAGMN

pIC50, pKi: −log10 of the molar value. Read-outs that look alike come from different tables or passages of the source.

The test addresses CcrM (UniProt P0CAW2). Kind of test: In vitro adenine DNA methyltransferase inhibition assay, CcrM. It is filed as biochemical, Caulobacter cresentus or Brucella abortus. To be noted: Table I, inhibition of CcrM.
Setting [1] is: read-out: Ki (calculated from a Dixon plot), inhibitor 0-150 μM or 0-80 μM.
Setting [2] is: read-out: Ki (estimated from IC50's).

Broadly, the pKi is the negative decadic logarithm of the Ki, by convention in mol/L. In the case of `NC(CCSCNc1ncnc2c1ncn2C1CC(O)C(CO)O1)C(=O)O` (stereo not drawn), under setting [1], the pKi is 4.39.
One may read the pIC50 as the negative decadic logarithm of the IC50, by convention in mol/L. Take `NC(CCSCNc1ncnc2c1ncn2C1OC(COP(=O)(O)O)C(O)C1O)C(=O)O` (stereo not drawn): the pIC50 is 3.00. Moreover, the pKi under setting [2] was 4.10.
`NC(CCSCNc1ncnc2c1ncn2C1OC(CO)C(O)C1O)C(=O)O` (stereo not drawn) showed a pIC50 of 2.70. Besides, under setting [2], the pKi is 3.80.
Regarding `NC(CCSCNc1ncnc2c1ncn2C1CC(O)C(COP(=O)(O)O)O1)C(=O)O` (stereo not drawn), the pKi under setting [1] is 4.89.
